Assay results from paper PMC12040969, “Design, synthesis, in silico studies, and apoptotic antiproliferative activity of novel thiazole-2-acetamide derivatives as tubulin polymerization inhibitors” (Frontiers in Chemistry, 2025).

Key:
[1] = system: Bax in MDAMB-231 cancer cell line; assay: Bax level assay; assay type: cell-based, human; conditions: MDAMB-231 cells, relative to untreated control
Description: (§1) […]. Supplementary Appendix A provides more information.

[2] = system: breast - MCF-7; assay: Antiproliferative assay (MTT) MCF-7
[3] = system: Caspase-3 in MDAMB-231 cancer cell line; assay: Caspase-3 activation assay; assay type: cell-based, human; conditions: MDAMB-231 cells, relative to untreated control
Description: as §1

[4] = system: - MDAMB-231; assay: Antiproliferative assay (MTT) MDAMB-231
[5] = system: prostatic - PC-3; assay: Antiproliferative assay (MTT) PC-3
[6] = system: colon - HCT-116; assay: Antiproliferative assay (MTT) HCT-116
[7] = system: Bcl-2 in MDAMB-231 cancer cell line; assay: Bcl-2 level assay; assay type: cell-based, human; conditions: MDAMB-231 cells, relative to untreated control
Description: as §1

[8] = system: Caspase-9 in MDAMB-231 cancer cell line; assay: Caspase-9 activation assay; assay type: cell-based, human; conditions: MDAMB-231 cells, relative to untreated control
Method: […]. Compound 10o was the least efficient derivative as caspase-9 activators (0.90 ng/mL).
as §1

Compound: Cc1nc(SCC(=O)Nc2nc(-c3ccccc3)cs2)sc1C(=O)/C=C/c1ccccc1 [Compound 10a, (E)-2-((5-cinnamoyl-4-methylthiazol-2-yl)thio)-N-(4-phenylthiazol-2-yl)acetamide]
- Bax Fold change [1]: 38 fold
- Average of Relative viability of cells (%) ([2]; MCF-7, 1.56 µM): 67.3%
- Average of Relative viability of cells (%) ([2]; MCF-7, 3.125 µM): 53.3%
- Average of Relative viability of cells (%) ([2]; MCF-7, 6.25 µM): 42.8%
- Average of Relative viability of cells (%) ([2]; MCF-7, 12.5 µM): 24.3%
- Average of Relative viability of cells (%) ([2]; MCF-7, 25 µM): 16.7%
- Average of Relative viability of cells (%) ([2]; MCF-7, 50 µM): 10.4%
- Average of Relative viability of cells (%) ([2]; MCF-7, 100 µM): 5.2%
- Potency relative to sorafenib, MCF-7 ([2]; MCF-7 breast cancer cell line): twice as strong as sorafenib
- Caspase-3 Fold change [3]: ~10 fold
- Average of Relative viability of cells (%) ([4]; MDAMB-231, 1.56 µM): 87.6%
- Average of Relative viability of cells (%) ([4]; MDAMB-231, 3.125 µM): 65.5%
- Average of Relative viability of cells (%) ([4]; MDAMB-231, 6.25 µM): 39.1%
- Average of Relative viability of cells (%) ([4]; MDAMB-231, 12.5 µM): 34.1%
- Average of Relative viability of cells (%) ([4]; MDAMB-231, 25 µM): 21.2%
- Average of Relative viability of cells (%) ([4]; MDAMB-231, 50 µM): 14.3%
- Average of Relative viability of cells (%) ([4]; MDAMB-231, 100 µM): 7.4%
- Average of Relative viability of cells (%) ([5]; PC-3, 1.56 µM): 88.7%
- Average of Relative viability of cells (%) ([5]; PC-3, 3.125 µM): 70.4%
- Average of Relative viability of cells (%) ([5]; PC-3, 6.25 µM): 52.2%
- Average of Relative viability of cells (%) ([5]; PC-3, 12.5 µM): 32.6%
- Average of Relative viability of cells (%) ([5]; PC-3, 25 µM): 24.5%
- Average of Relative viability of cells (%) ([5]; PC-3, 50 µM): 17.2%
- Average of Relative viability of cells (%) ([5]; PC-3, 100 µM): 9.3%
- Average of Relative viability of cells (%) ([6]; HCT-116, 1.56 µM): 89.2%
- Average of Relative viability of cells (%) ([6]; HCT-116, 3.125 µM): 69.8%
- Average of Relative viability of cells (%) ([6]; HCT-116, 6.25 µM): 60.1%
- Average of Relative viability of cells (%) ([6]; HCT-116, 12.5 µM): 31.5%
- Average of Relative viability of cells (%) ([6]; HCT-116, 25 µM): 25.4%
- Average of Relative viability of cells (%) ([6]; HCT-116, 50 µM): 16.9%
- Average of Relative viability of cells (%) ([6]; HCT-116, 100 µM): 8.7%
- Bcl-2 Fold reduction [7]: 6 fold
- Caspase-9 Fold change [8]: 16 fold
